The results in this text go back to patent US20250346585A1 (Alexion Pharmaceuticals, Inc., priority 2022, published 2025).

Amino acid sequences for entries named in this document (tags omitted). Residues count along the entry.
UniProt P09871, 438-688 limits assumed: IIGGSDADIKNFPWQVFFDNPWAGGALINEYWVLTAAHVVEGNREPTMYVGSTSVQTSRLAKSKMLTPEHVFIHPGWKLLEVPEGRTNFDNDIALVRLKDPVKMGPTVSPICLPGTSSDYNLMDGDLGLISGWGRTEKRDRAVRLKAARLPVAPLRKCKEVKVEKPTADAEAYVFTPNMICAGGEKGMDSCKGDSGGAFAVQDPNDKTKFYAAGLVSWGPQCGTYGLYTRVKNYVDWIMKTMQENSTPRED
UniProt P09871, 16-437 partner limits assumed: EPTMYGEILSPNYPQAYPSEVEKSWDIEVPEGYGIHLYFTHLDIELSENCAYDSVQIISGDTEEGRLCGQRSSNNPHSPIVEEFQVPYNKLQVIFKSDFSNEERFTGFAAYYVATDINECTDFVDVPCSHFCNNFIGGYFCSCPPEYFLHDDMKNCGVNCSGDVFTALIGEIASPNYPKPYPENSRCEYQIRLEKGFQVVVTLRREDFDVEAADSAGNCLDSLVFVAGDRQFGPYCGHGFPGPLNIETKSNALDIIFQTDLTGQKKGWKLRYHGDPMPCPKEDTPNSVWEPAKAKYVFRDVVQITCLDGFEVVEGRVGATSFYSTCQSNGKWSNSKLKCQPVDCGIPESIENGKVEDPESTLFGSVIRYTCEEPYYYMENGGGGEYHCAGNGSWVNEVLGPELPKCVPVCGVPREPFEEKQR

Structures are written as SMILES. Read-outs that look alike come from different tables or passages of the source.

The test concerns the target Human complement C1s enzyme (Homo sapiens (Human), UniProt P09871). Kind of test: Human C1s enzyme assay. It counts as biochemical. To be noted: read-out: IC50 (Stars). How it is done:
Human complement C1s enzyme (purified from human serum, Complement Technology, Inc.) at 1.16 nM final concentration was incubated with test compound at various concentrations for 5 min at room temperature in 50 mM Tris, 1 M NaCl, pH 7.5. A synthetic substrate Z-L-Lys-SBzl and DTNB (Ellman's reagent) were added to final concentrations of 100 μM each. Absorbance at 405 nm (A405) was recorded at 30 second intervals for 30 min using a microplate spectrophotometer. IC50 values were calculated by nonlinear regression of complement C1s reaction rates as a function of test compound concentration.

Turning to `C[C@@H](NC(=O)[C@@H]1C[C@](F)(Cn2ccnc2)CN1C(=O)CNC(=O)c1ccc2c(c1)-c1ccccc1C2(F)F)c1cc(C(=N)N)cs1`, the IC50 (commonly the concentration at which inhibition is half-maximal) (Human complement C1s enzyme 1.16 nM, substrate Z-L-Lys-SBzl 100 μM, assay of Example 3) is below 100 nM.

`C[C@@H](NC(=O)[C@@H]1C[C@](F)(COCCCCCCCC(=O)O)CN1C(=O)CNC(=O)c1ccc2c(c1)-c1ccccc1C2(F)F)c1cc(C(=N)N)cs1`: the IC50 (Human C1s enzyme assay of Example 3) is below 100 nM.
